According to publication PMC9871955, “High-throughput screening of SARS-CoV-2 main and papain-like protease inhibitors” (Protein & Cell, 2022):

Target: SARS-CoV-2 M^pro (Severe acute respiratory syndrome coronavirus 2, UniProt P0DTD1)
Assay: biochemical
Assay type: biochemical

Structure (SMILES)	IC50 (IC50 (μM) at S/KM 1)	IC50 (IC50 (μM) at S/KM 1/2)	also measured
O=C1NC(=O)C(=Cc2ccc(-c3cccc(Cl)c3Cl)o2)C(=O)N1 [WNN3989-H007]	0.18 ± 0.01 µM		IC50 (IC50 (μM) at S/KM 2): 0.18 ± 0.07 µM
O=C1NC(=O)C(=Cc2ccc(-c3cccc(C(F)(F)F)c3)o2)C(=O)N1 [WNN3953-B007]		0.28 ± 0.08 µM	
COc1ccc(CN2C(=O)NC(=O)/C(=C\c3ccco3)C2=O)cc1 [CDE0972-G011]			IC50 (Table S1, M^pro inhibitors, 40 nmol/L enzyme, 20 µmol/L substrate, read-out: IC50): 0.267 ± 0.006 µM
O=C(Oc1cncc(Cl)c1)c1sccc1Cl [WNN2048-F004]		0.32 ± 0.01 µM	
O=C1NC(=O)N(Cc2ccccc2)C(=O)C1=Cc1ccco1 [WNN3797-H008]	0.56 ± 0.19 µM		

Read-outs that look alike come from different tables or passages of the source.
